Assay results reported in ChEMBL document CHEMBL1135700, “Design, synthesis and activity of ascorbic acid prodrugs of nipecotic, kynurenic and diclophenamic acids, liable to increase neurotropic activity” (2002).

Chains of the proteins cited; added tags and fusions are not shown. Lines headed by an entry give the natural chain unless they say otherwise; changes in a name come on top.
UniProt Q9UGH3: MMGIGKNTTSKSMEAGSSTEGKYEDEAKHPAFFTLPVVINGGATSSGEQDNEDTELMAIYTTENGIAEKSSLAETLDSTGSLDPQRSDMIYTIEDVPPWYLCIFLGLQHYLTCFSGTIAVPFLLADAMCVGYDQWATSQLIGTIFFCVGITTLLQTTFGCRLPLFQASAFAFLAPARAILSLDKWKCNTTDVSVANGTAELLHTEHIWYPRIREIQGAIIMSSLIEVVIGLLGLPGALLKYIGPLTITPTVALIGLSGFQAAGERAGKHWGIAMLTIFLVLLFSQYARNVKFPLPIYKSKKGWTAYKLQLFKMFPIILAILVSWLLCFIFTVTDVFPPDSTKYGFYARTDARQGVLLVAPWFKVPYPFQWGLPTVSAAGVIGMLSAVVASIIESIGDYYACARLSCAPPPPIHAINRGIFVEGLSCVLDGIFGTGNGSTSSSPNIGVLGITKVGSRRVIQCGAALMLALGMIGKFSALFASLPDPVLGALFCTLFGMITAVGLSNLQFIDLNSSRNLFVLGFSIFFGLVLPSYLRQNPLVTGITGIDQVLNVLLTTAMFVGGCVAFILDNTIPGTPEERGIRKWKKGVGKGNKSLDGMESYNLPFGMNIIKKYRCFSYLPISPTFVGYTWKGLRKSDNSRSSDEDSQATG

Legend:
[1] = molecular target: Solute carrier family 23 member 2 (Homo sapiens) (UniProt Q9UGH3); details: 100 uM
[2] = molecular target: Solute carrier family 23 member 2 (Homo sapiens) (UniProt Q9UGH3); details: 500 uM
[3] = molecular target: Solute carrier family 23 member 2 (Homo sapiens) (UniProt Q9UGH3)
[4] = molecular target: Solute carrier family 23 member 2 (Homo sapiens) (UniProt Q9UGH3); details: 75 uM
[5] = molecular target: Solute carrier family 23 member 2 (Homo sapiens) (UniProt Q9UGH3); details: 3 uM
[6] = molecular target: Solute carrier family 23 member 2 (Homo sapiens) (UniProt Q9UGH3); details: 250 nM
[7] = molecular target: Solute carrier family 23 member 2 (Homo sapiens) (UniProt Q9UGH3); details: 750 nM
[8] = molecular target: Solute carrier family 23 member 2 (Homo sapiens) (UniProt Q9UGH3); details: 5 mM
[9] = molecular target: Solute carrier family 23 member 2 (Homo sapiens) (UniProt Q9UGH3); details: 2 mM
[10] = test system: O=C(Cc1ccccc1Nc1c(Cl)cccc1Cl)OC[C@H](O)[C@H]1OC(=O)C(O)=C1O; details: 750 nM
[11] = test system: O=C1O[C@H]([C@](O)(Br)CO)C(O)=C1O; details: 5 uM
[12] = test system: O=C1O[C@H]([C@@H](O)COC(=O)C2CCCNC2)C(O)=C1O; details: 5 mM
[13] = test system: O=C(Cc1ccccc1Nc1c(Cl)cccc1Cl)OC[C@H](O)[C@H]1OC(=O)C(O)=C1O; details: 3 uM
[14] = test system: O=C1O[C@H]([C@@H](O)COC(=O)c2cc(O)c3ccccc3n2)C(O)=C1O; details: 100 uM
[15] = test system: O=C(Cc1ccccc1Nc1c(Cl)cccc1Cl)OC[C@H](O)[C@H]1OC(=O)C(O)=C1O; details: 250 nM
[16] = test system: O=C1O[C@H]([C@@H](O)COC(=O)c2cc(O)c3ccccc3n2)C(O)=C1O; details: 500 uM

Compound: O=C1O[C@H]([C@@H](O)COC(=O)c2cc(O)c3ccccc3n2)C(O)=C1O
- Kt [1]: 119 µM
- Kt [2]: 296 µM

Compound: O=C1O[C@H]([C@@H](O)CO)C(O)=C1O
- Kt [3]: 36 µM

Compound: O=C1O[C@H]([C@](O)(Br)CO)C(O)=C1O
- Kt [4]: 816 µM

Compound: O=C(Cc1ccccc1Nc1c(Cl)cccc1Cl)OC[C@H](O)[C@H]1OC(=O)C(O)=C1O
- Kt [5]: 609 µM
- Kt [6]: 73 µM
- Kt [7]: 188 µM

Compound: O=C1O[C@H]([C@@H](O)COC(=O)C2CCCNC2)C(O)=C1O (stereo partly specified)
- Kt [8]: 165 µM
- Kt [9]: 94 µM

Compound: Solute carrier family 23 member 2 (Homo sapiens), Q9UGH3
- Vmax (nM hr-1 (10e6*cells)-1) [10]: 4.1
- Vmax (nM hr-1 (10e6*cells)-1) [11]: 4.1
- Vmax (nM hr-1 (10e6*cells)-1) [12]: 4.1
- Vmax (nM hr-1 (10e6*cells)-1) [13]: 4.4
- Vmax (nM hr-1 (10e6*cells)-1) [14]: 4.6
- Vmax (nM hr-1 (10e6*cells)-1) [15]: 4.5
- Vmax (nM hr-1 (10e6*cells)-1) [16]: 4
